Experimental data: PubChem BioAssay AID463206 (Broad Institute, 2010)
The source made the active and inactive calls.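 The calls were made as follows: active = caspase luminescence falls with dose and the half-maximal concentration AC50 from the fitted curve is at or below a set limit; inconclusive = flat fit at 30 to 70% signal loss, or invalid fit; inactive = AC50 above the limit, or signal rises instead.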

Test system: INS-1E cytokine-induced caspase-3/7, Caspase-Glo luminescence, 48 h
Assay: suppression of cytokine-driven beta-cell apoptosis – INS-1E rat cells, luminescence, orthogonal assay for beta-cell apoptosis protection project, dose response (AID 463206)

In the case of CC[n+]1c(/C=C/N(C)c2ccccc2)oc2ccccc21, the AC50 is reported as inactive: > 26 µM.
